Reference: IntAct's records for PubMed 20511396

B1: Transcription factor Jun (Homo sapiens), P05412 (parent)
chain: MTAKMETTFYDDALNASFLPSESGPYGYSNPKILKQSMTLNLADPVGSLKPHLRAKNSDLLTSPDVGLLKLASPELERLIIQSSNGHITTTPTPTQFLCPKNVTDEQEGFAEGFVRALAELHSQNTLPSVTSAAQPVNGAGMVAPAVASVAGGSGSGGFSASLHSEPPVYANLSNFNPGALSSGGGAPSYGAAGLAFPAQPQQQQQPPHHLPQQMPVQHPRLQALKEEPQTVPEMPGETPPLSPIDMESQERIKAERKRMRNRIAASKCRKRKLERIARLEEKVKTLKAQNSELASTANMLREQVAQLKQKVMNHVNSGCQLMLTQQLQTF

Variants of: B1
Conditions: with fos_human FOS

Variant | effect of a mutation on the interaction
MTAKMETTFYDDALNASFLPSESGPYGYSNPKILKQSMTLNLADPVGSLKPHLRAKNSDLLTSPDVGLLKLASPELERLIIQSSNGHITTTPTPTQFLCPKNVTDEQEGFAEGFVRALAELHSQNTLPSVTSAAQPVNGAGMVAPAVASVAGGSGSGGFSASLHSEPPVYANLSNFNPGALSSGGGAPSYGAAGLAFPAQPQQQQQPPHHLPQQMPVQHPRLQALKEEPQTVPEMPGETPPLSPIDMESQERIKAERKRMRNRIAASKCRKRKLERIARLEEEVKTLEAQNSELASTANMLEEEVAQLKQKVMNHVNSGCQLMLTQQLQTF [K283E;K288E;R302E;Q304E] | decreasing interaction strength
